Tested on: Adult Respiratory Distress Syndrome
Details: alone

## O=C(O)COCCN1CCN([C@H](c2ccccc2)c2ccc(Cl)cc2)CC1 [levocetirizine]
  Believed effect of the single agent in ARDS: not be potent enough by itself to clear a patient's lungs
